Measurements from ChEMBL document CHEMBL2346553, “Synthesis and evaluation of non-dimeric HCV NS5A inhibitors” (Bioorg Med Chem Lett, 2013).

Amino acid sequences for entries named in this document (tags omitted).
UniProt P05177, whole entry: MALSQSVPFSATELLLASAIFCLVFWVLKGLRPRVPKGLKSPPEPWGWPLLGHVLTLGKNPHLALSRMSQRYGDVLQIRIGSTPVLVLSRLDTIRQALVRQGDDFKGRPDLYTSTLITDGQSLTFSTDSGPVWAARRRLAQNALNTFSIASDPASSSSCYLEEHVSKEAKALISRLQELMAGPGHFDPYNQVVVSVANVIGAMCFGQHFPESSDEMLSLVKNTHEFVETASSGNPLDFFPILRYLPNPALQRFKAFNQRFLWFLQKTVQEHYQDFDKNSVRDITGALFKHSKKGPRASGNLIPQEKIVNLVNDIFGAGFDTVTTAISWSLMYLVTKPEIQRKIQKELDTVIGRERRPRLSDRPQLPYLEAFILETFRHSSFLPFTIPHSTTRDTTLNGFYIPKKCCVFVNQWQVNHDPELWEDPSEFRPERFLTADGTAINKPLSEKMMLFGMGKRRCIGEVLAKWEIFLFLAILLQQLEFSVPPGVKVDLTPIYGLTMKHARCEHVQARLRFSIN

Molecular target: Cytochrome P450 1A2 (Homo sapiens, UniProt P05177)
Assay: Inhibition of human CYP1A2 at 3 uM
Format: ADME

O=c1cc(-c2ccccc2)oc2c1ccc1ccccc12 [ALPHA-NAPHTHOFLAVONE]
inhibition (INH): > 93%
